Legend:
[1] = target: T1, Caspase-1 (Mus musculus) (UniProt P29452); assay: (§1) Inhibition of mouse recombinant ICE assessed as ratio of irreversible rate constant K3 to dissociation constant of the reversible binding step Ki pre-incubated for 60 mins with Acetyl-Tyr-Val-Ala-Asp-amino-4-methylcoumarin substrate followed by enzyme addition by fluorescence based assay
T1 sequence (whole entry): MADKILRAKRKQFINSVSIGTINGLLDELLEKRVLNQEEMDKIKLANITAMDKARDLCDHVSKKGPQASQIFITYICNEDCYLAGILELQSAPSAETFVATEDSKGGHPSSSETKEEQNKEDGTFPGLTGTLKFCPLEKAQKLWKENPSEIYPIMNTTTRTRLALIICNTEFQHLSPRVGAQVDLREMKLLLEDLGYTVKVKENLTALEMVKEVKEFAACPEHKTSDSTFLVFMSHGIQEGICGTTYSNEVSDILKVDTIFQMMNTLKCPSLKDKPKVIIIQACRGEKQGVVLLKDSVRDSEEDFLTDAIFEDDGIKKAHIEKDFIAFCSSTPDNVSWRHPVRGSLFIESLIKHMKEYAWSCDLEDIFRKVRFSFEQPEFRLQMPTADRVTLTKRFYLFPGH

Amino acid sequences for entries named in this document (tags omitted). A change or cut given only in a name is not applied to a line headed by its entry.
UniProt Q14790: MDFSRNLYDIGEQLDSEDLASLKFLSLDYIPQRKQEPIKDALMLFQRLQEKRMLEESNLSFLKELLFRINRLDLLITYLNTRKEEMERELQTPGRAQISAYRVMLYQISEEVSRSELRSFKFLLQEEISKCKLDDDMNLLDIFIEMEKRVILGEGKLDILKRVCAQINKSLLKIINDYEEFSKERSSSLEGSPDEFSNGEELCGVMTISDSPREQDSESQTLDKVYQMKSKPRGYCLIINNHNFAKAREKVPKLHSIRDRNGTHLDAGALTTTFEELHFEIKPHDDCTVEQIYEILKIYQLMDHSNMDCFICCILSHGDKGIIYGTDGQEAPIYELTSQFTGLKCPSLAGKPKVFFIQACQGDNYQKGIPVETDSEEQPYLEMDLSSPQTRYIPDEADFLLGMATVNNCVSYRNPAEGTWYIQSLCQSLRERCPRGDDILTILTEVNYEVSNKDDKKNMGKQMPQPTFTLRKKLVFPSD

[2] = target: T2, Caspase-3 (Homo sapiens) (UniProt P42574); assay: as §1, with “of” for “of mouse”, “CPP32 (unknown origin)” for “ICE”
T2 sequence (whole entry): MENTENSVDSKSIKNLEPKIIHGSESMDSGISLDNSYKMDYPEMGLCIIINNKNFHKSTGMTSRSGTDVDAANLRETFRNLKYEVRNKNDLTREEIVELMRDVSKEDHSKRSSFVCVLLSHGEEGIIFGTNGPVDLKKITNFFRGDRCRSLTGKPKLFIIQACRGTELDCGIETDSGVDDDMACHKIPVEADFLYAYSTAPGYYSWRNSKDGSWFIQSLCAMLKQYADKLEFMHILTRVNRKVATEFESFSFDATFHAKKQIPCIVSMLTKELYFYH

[3] = target: T3, Caspase-6 (Homo sapiens) (UniProt P55212); assay: Inhibition of recombinant MCH2 (unknown origin) assessed as ratio of irreversible rate constant K3 to dissociation constant of the reversible binding step Ki pre-incubated for 60 mins with Acetyl-Tyr-Val-Ala-Asp-amino-4-methylcoumarin substrate followed by enzyme addition by fluorescence based assay
T3 sequence (whole entry): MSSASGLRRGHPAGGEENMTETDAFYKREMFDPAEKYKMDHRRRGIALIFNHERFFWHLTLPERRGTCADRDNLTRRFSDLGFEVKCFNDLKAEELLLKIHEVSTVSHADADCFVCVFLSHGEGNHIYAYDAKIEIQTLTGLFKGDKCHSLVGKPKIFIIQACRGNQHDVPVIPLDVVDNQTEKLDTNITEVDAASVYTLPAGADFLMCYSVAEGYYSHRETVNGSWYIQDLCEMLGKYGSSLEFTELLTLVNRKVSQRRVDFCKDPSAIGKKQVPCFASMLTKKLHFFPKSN

[4] = target: Caspase-8 (Homo sapiens) (UniProt Q14790); assay: Inhibition of recombinant MCH5 (unknown origin) assessed as ratio of irreversible rate constant K3 to dissociation constant of the reversible binding step Ki pre-incubated for 60 mins with Acetyl-Tyr-Val-Ala-Asp-amino-4-methylcoumarin substrate followed by enzyme addition by fluorescence based assay

Row | Ratio [2] | Ratio [4] | Structure (SMILES) | Ratio [1] | Ratio [3]
1 | 264000 M⁻¹ s⁻¹ | 88800 M⁻¹ s⁻¹ | COC(=O)c1cc(OCC(=O)[C@H](CC(=O)O)NC(=O)[C@@H](NC(=O)C(=O)Nc2cccc3ccccc23)C(C)C)no1 | 532000 M⁻¹ s⁻¹ | 12800 M⁻¹ s⁻¹
2 | 149000 M⁻¹ s⁻¹ | – | CC(C)[C@H](NC(=O)C(=O)Nc1cnccn1)C(=O)N[C@@H](CC(=O)O)C(=O)COc1c(F)c(F)cc(F)c1F | – | –
3 | 340000 M⁻¹ s⁻¹ | 189000 M⁻¹ s⁻¹ | CC(C)[C@H](NC(=O)C(=O)Nc1cccc2ccccc12)C(=O)N[C@@H](CC(=O)O)C(=O)COc1c(F)cc(F)cc1F | – | –
4 | 740000 M⁻¹ s⁻¹ | 119000 M⁻¹ s⁻¹ | CC(C)[C@H](NC(=O)C(=O)Nc1cccc2ccccc12)C(=O)N[C@@H](CC(=O)O)C(=O)COC(=O)c1c(Cl)cccc1Cl | – | –
5 | 294000 M⁻¹ s⁻¹ | 60300 M⁻¹ s⁻¹ | CC(C)[C@H](NC(=O)C(=O)Nc1cccc2ccccc12)C(=O)N[C@@H](CC(=O)O)C(=O)COc1ccnc(C(F)(F)F)n1 | 1.07e+06 M⁻¹ s⁻¹ | 13300 M⁻¹ s⁻¹

Row | Structure (SMILES) | Ratio [2] | Ratio [4] | Ratio [1] | Ratio [3]
6 | CC(C)[C@H](NC(=O)C(=O)Nc1cccc2ccccc12)C(=O)N[C@@H](CC(=O)O)C(=O)COP(C)(=O)c1ccccc1 (stereo partly specified) | 529000 M⁻¹ s⁻¹ | 847000 M⁻¹ s⁻¹ | 1.4e+06 M⁻¹ s⁻¹ | 165000 M⁻¹ s⁻¹
7 | CC(C)[C@H](NC(=O)C(=O)Nc1cccc2ccccc12)C(=O)N[C@@H](CC(=O)O)C(=O)COP(=O)(c1ccccc1)c1ccccc1 | 876000 M⁻¹ s⁻¹ | 2.45e+06 M⁻¹ s⁻¹ | 2.95e+06 M⁻¹ s⁻¹ | 222000 M⁻¹ s⁻¹
